Test results: article PMC9798004 (Frontiers in Psychiatry, 2022)

Sequences of proteins named here, by UniProt entry; tags and fusion partners are left off. A change or cut given only in a name is not applied to a line headed by its entry. Residues count along the entry.
UniProt P30411, whole entry: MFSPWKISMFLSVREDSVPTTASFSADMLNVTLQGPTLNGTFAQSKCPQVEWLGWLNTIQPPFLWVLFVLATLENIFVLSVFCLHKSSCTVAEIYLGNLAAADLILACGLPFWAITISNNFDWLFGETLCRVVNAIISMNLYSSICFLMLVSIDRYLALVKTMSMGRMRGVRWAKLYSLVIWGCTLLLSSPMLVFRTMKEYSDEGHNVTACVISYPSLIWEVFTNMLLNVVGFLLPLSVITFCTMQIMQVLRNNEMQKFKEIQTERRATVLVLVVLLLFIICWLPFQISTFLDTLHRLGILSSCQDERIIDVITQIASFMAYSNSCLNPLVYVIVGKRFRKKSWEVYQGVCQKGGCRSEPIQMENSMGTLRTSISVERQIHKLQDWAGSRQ
UniProt P25101, 21-427: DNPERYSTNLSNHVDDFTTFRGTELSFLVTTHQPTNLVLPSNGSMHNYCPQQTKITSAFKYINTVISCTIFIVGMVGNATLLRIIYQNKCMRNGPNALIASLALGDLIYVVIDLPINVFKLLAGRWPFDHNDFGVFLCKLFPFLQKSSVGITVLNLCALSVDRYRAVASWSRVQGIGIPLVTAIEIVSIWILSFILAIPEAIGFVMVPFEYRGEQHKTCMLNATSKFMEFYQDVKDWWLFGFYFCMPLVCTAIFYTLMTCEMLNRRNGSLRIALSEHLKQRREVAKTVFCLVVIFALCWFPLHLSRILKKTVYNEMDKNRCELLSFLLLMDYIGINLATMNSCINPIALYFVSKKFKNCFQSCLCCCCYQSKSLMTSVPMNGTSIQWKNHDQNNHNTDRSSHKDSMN
UniProt Q969F8, whole entry: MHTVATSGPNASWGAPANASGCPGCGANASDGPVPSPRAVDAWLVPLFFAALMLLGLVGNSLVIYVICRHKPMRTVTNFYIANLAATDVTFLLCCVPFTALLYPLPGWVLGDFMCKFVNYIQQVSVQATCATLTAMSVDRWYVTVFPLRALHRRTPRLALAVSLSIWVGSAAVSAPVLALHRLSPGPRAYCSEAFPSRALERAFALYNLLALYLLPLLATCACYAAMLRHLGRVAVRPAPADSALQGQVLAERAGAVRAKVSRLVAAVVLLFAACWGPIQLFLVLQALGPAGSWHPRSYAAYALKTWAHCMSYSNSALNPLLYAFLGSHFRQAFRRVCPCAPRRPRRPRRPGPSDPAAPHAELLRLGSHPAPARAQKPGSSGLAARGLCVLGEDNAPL
UniProt Q01726: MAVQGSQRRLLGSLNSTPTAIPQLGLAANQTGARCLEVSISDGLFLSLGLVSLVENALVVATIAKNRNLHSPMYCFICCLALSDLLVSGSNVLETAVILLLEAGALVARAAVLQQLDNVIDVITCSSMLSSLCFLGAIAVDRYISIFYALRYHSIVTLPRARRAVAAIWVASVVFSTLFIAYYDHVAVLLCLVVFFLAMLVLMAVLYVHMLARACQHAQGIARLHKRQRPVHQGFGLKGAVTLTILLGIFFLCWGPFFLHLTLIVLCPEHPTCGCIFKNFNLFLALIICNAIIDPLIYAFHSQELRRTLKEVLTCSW
UniProt P41968: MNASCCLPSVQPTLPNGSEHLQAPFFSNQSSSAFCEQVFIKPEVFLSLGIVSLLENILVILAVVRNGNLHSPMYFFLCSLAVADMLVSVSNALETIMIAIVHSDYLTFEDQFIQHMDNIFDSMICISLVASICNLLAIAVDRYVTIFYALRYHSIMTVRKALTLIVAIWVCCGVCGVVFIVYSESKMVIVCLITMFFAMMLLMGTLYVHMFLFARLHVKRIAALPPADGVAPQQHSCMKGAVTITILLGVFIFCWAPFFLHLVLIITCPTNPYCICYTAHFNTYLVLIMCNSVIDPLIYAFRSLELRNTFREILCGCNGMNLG
UniProt P33032: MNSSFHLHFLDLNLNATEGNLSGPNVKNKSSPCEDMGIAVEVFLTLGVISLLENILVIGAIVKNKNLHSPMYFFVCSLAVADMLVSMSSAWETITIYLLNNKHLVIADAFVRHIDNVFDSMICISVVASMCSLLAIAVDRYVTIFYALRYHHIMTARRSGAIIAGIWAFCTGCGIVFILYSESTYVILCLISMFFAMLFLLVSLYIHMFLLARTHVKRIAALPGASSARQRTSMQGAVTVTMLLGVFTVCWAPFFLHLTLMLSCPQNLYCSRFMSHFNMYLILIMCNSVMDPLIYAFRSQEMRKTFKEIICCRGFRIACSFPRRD
UniProt P28336: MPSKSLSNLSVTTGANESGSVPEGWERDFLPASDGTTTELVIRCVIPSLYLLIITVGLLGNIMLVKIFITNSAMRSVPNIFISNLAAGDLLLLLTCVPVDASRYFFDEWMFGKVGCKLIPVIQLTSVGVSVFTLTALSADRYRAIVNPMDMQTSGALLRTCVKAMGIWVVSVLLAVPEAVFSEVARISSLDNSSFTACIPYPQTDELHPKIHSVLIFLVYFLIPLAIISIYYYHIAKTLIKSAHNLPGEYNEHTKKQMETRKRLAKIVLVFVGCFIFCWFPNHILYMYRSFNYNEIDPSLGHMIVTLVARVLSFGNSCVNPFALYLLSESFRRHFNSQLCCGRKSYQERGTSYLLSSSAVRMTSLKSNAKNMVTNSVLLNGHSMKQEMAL
UniProt P30872: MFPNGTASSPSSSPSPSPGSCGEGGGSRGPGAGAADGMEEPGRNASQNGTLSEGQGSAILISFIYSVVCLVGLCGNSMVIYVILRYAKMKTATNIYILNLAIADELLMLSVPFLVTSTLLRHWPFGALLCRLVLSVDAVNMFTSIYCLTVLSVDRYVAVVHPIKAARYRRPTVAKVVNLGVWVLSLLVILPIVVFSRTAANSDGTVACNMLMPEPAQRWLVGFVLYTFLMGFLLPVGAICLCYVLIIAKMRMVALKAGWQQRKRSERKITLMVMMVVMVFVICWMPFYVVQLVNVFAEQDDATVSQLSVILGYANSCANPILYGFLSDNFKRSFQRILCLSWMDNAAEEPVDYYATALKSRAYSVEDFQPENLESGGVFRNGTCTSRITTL
UniProt P30874: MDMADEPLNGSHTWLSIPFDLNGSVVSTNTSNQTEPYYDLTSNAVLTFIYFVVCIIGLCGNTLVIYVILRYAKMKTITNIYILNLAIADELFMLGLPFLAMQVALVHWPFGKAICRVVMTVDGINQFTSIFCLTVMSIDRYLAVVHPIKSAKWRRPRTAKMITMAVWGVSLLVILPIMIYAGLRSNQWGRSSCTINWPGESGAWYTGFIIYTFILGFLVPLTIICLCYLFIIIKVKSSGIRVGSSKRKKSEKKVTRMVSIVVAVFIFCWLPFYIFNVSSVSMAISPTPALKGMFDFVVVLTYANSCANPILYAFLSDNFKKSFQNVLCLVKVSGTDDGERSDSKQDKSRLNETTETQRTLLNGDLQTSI
UniProt P35346: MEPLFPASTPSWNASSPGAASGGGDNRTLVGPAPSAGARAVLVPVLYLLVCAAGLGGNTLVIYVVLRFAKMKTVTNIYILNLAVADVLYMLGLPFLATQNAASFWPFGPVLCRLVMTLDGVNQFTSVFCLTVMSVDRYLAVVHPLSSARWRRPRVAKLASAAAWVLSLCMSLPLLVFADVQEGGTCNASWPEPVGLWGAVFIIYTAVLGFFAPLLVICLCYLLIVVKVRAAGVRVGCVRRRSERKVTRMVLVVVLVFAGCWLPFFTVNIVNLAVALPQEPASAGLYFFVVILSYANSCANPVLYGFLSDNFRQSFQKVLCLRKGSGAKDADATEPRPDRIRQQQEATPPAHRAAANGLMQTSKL

Legend:
Assay in all cases: PathHunter β-arrestin assay
BDKRB2 = BDKRB2 (Homo sapiens, UniProt P30411); settings: screen, control agonist; CHO, RT, 2HR
EDNRA = EDNRA (Homo sapiens, UniProt P25101); settings: screen, control agonist; CHO, RT, 2HR
KISS1R = KISS1R (Homo sapiens, UniProt Q969F8); settings: screen, control agonist; U20S, 37C, 2HR
MC1R = MC1R (Homo sapiens, UniProt Q01726); settings: screen, control agonist; U20S, 37C, 2HR
MC3R = MC3R (Homo sapiens, UniProt P41968); settings: control agonist
MC5R = MC5R (Homo sapiens, UniProt P33032); settings: control agonist
NMBR = NMBR (Homo sapiens, UniProt P28336); settings: screen, control agonist; CHO, RT, 2HR
OXTR = target: T1, OXTR (Homo sapiens, UniProt P30559); settings: control agonist
T1 sequence (P30559 1-389): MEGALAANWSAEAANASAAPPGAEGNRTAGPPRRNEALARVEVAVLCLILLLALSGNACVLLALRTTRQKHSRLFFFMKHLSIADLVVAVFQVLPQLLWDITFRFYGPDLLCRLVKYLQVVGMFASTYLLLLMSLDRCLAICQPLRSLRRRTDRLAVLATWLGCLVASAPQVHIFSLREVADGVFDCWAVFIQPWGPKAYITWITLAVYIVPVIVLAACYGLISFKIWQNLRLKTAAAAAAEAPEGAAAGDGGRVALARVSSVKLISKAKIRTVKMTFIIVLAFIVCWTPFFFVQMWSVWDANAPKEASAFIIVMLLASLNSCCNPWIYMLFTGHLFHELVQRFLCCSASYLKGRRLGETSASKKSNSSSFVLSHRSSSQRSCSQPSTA

ADCYAP1R1 = target: T2, ADCYAP1R1 (Homo sapiens, UniProt P41586); settings: screen, control agonist; CHO, 37C, 2HR
T2 sequence (P41586 21-468): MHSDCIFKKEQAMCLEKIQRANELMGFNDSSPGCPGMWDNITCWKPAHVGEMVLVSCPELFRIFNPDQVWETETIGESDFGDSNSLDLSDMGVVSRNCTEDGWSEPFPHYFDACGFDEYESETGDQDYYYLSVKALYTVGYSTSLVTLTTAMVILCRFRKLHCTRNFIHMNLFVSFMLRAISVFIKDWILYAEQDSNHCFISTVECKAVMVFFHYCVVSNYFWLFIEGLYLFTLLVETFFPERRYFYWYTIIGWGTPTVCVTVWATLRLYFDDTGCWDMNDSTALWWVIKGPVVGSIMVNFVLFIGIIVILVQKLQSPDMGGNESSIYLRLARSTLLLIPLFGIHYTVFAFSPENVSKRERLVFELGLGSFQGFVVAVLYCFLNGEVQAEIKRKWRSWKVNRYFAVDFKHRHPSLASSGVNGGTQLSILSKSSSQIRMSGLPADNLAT

CRHR1 = target: T3, CRHR1 (Homo sapiens, UniProt P34998); format: cell-based; settings: screen, control agonist; CHO, 37C, 2HR
T3 construct: purchased Eurofins DiscoverX (PathHunter gpcrMAX)
T3 sequence (P34998 24-415): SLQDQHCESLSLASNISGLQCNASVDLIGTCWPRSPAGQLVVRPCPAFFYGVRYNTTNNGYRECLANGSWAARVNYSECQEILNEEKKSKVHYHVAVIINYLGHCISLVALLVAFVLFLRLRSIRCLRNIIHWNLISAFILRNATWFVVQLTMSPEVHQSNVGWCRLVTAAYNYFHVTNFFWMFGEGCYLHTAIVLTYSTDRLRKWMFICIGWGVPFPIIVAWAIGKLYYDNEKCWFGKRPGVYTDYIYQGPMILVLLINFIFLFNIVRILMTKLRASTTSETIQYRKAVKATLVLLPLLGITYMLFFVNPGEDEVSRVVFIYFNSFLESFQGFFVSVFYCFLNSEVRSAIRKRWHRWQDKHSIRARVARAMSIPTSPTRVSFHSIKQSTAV

SSTR1 = SSTR1 (Homo sapiens, UniProt P30872); settings: screen, control agonist; U20S, 37C, 2HR
SSTR2 = SSTR2 (Homo sapiens, UniProt P30874); settings: screen, control agonist; CHO, 37C, 2HR
SSTR5 = SSTR5 (Homo sapiens, UniProt P35346); settings: screen, control agonist; CHO, 37C, 2HR
BRS3 = target: T4, BRS3 (Homo sapiens, UniProt P32247); settings: screen, control agonist; CHO, 37C, 2HR
T4 sequence (P32247 1-399): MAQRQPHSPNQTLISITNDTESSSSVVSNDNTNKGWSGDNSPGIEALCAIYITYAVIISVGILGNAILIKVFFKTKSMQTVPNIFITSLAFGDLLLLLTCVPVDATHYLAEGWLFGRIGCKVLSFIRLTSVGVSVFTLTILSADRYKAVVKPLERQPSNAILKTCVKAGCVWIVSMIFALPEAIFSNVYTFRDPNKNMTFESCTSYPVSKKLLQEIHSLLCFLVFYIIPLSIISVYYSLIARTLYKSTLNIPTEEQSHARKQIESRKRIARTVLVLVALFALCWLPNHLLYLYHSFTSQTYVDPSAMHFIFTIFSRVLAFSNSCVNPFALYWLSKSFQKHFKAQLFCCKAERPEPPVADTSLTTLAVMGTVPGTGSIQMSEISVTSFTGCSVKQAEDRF

[1] = follow-up concentration-response assays

**Q.** How did the EC80 (BDKRB2) turn out when Bradykinin was run?
**A.** 3.29 nM

**Q.** Which EC80 (EDNRA) does the source give for Endothelin I here?
**A.** 17.4 nM

**Q.** Kisspeptin-10 was tested. Which EC80 (KISS1R) did it give?
**A.** 38 nM

**Q.** Which EC80 (MC1R) does the source give for Melanotan II here?
**A.** 0.557 nM

**Q.** What about the EC80 (MC3R; [1]) of the same substance?
**A.** 2.98 nM

**Q.** And the EC80 (MC3R; screen, U20S, 37C, 2HR)?
**A.** 8.96 nM

**Q.** And the EC80 (MC5R; [1])?
**A.** 50 nM

**Q.** What about the EC80 (MC5R; screen, CHO, 37C, 2HR) of the same substance?
**A.** 17.3 nM

**Q.** For Neuromedin B, which EC80 (NMBR) is on record?
**A.** 9.32 nM

**Q.** Which EC80 (OXTR; [1]) does the source give for Oxytocin here?
**A.** 7.35 nM

**Q.** What about the EC80 (OXTR; screen, CHO, 37C, 2HR) of the same substance?
**A.** 7.35 nM

**Q.** How did the EC80 (ADCYAP1R1) turn out when PACAP-27 was run?
**A.** 3.85 nM

**Q.** Which EC80 (CRHR1) does the source give for Sauvagine here?
**A.** 3.52 nM

**Q.** For Somatostatin 28, which EC80 (SSTR1) is on record?
**A.** 62.2 nM

**Q.** And the EC80 (SSTR2)?
**A.** 8.38 nM

**Q.** What about the EC80 (SSTR5) of the same substance?
**A.** 42.2 nM

**Q.** With TAPN-Bombesin as the substance, how does the EC80 (BRS3) read?
**A.** 6.56 nM
